Read-outs that look alike come from different tables or passages of the source.

Series [1] deals with P-gp. The series is described as follows: Western blot analysis of P-gp protein expression in drug-treated LS-180 cells. The conditions noted are these: read-out: EC50 to up-regulate P-gp expression, 48 h, following normalization to 100%. For orientation: Immunoblotting shows a protein as a band on a membrane.
Series [2] deals with P-gp.

Regarding hyperforin, the concentration for a half-maximal effect (EC50) (commonly the concentration giving half of the maximal effect) stood at 5 nM in series [1] and 20 nM in series [2].

Values taken from PMC3172709 (Journal of pharmacy & pharmaceutical sciences : a …, 2011).
